We go through 1 substance from patent EP4660190A1, “PHARMACEUTICALLY ACCEPTABLE SALT OF COMPOUND AND PREPARATION METHOD THEREFOR” (Jiangsu Chia Tai Fenghai Pharmaceutical Co., Ltd., priority 2023, dated 2024).

Series [1] is described as follows: Solubility of the tromethamine salt in water at different temperatures. To be noted: 1 g sample in water. The series is classed as physicochemical.
In series [2] the test system is rat spinal cord injury model. The series is described as follows: Rat spinal cord injury model, BBB locomotor scores. The series is classed as in vivo, Male SD rats. To be noted: mean±SD.

Take “(Z)-3-(1-hydroxybutenyl)benzofuran-2-one tromethamine salt [Example 10]”: the results for the “Volume of water for dissolution” value in series [1] (20°C), in series [1] (25°C) and in series [1] (30°C) were 25 mL, 20 mL and 14 mL, respectively. Moreover, the “BBB Locomotor Scores” value was found to be 0.4± 0.7 in series [2] (high dose 20 mg/kg ig qd, 3 d after dosing); 3.8±2.17 in series [2] (high dose 20 mg/kg ig qd, 7 d after dosing); 6.7±4.9 in series [2] (high dose 20 mg/kg ig qd, 14 d after dosing); 9.3±4.1 in series [2] (high dose 20 mg/kg ig qd, 28 d after dosing); 0± 0 in series [2] (high dose 20 mg/kg ig qd, Before dosing); 0.1± 0.3 in series [2] (low dose 5 mg/kg ig qd, 3 d after dosing). The “BBB Locomotor Scores” value was found to be 1.4± 2.1 in series [2] (low dose 5 mg/kg ig qd, 7 d after dosing); 2.2± 3.5 in series [2] (low dose 5 mg/kg ig qd, 14 d after dosing); 4.8± 3.8 in series [2] (low dose 5 mg/kg ig qd, 28 d after dosing); 0± 0 in series [2] (low dose 5 mg/kg ig qd, Before dosing).
